Laboratory results as given in PubChem BioAssay AID2732 (Emory University Molecular Libraries Screening Center, 2010).
Only a part is listed here, and it is no random draw. The source made the active and inactive calls.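 How the source made its calls: active means compounds that reduced the stress-induced luciferase reporter signal by more than about 70% of percent inhibition (limit read from the data); inactive means the rest.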

test: blockers of ER-stress CHOP reporter expression – cell-based, unfolded protein response, luciferase reporter, primary screen (AID 2732); conditions: CHO-K1 CHOP-promoter luciferase, tunicamycin-induced, 15-18 h; at 10 µM; stronger effect = higher value;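 further: 0% = tunicamycin plus vehicle and 100% = wells without tunicamycin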

Compound | inhibition
O=C(NCC1(N2CCOCC2)CCCCC1)c1cc(=O)[nH]c2ccccc12 | inactive: -40.9%
COc1ccc(NC2CCN(C(=O)OC(C)(C)C)CC2)cc1 | inactive: 0.04%
CN1CCN(CCOC(=O)C(O)(c2ccccc2)c2ccccc2)CC1 | inactive: 17.4%
N#CC1(Nc2ccccc2)CCN(CCc2ccccc2)CC1 | inactive: 15.1%
O=C(NCC1(N2CCCCC2)CCCCC1)c1cccc([N+](=O)[O-])c1 | inactive: 0.42%
CC(C)c1ccc(NC2CCN(C(=O)OC(C)(C)C)CC2)cc1 | inactive: 53.5%
CN(C)c1cccc(C(=O)NCC2(N3CCCCC3)CCCCC2)c1 | inactive: 1.52%
COc1ccc(CN(CCCl)CCCl)cc1Cl | inactive: 45%
O=C(OC1CN2CCC1CC2)C1c2ccccc2Oc2ccccc21 (centres undefined) | inactive: 33.7%
N#CC1(Nc2ccccc2)CCN(Cc2ccccc2)CC1 | inactive: -0.49%
CCOC(=O)N1CCC(Nc2ccc(OC)cc2)CC1 | inactive: -6.3%
O=C(NCC1(N2CCOCC2)CCCCC1)c1cc2ccccc2o1 | inactive: 6.18%
COc1ccc(C(=O)NCC2(N3CCCCC3)CCCCC2)c(OC)c1OC | inactive: -5.98%
Cc1ccc(OCC(C)C)c(CN(CCCl)CCCl)c1 | inactive: 3.2%
COc1ccc(NC2CCN(CCc3ccccc3)CC2)c(OC)c1 | inactive: 1.51%
CCOc1ccc(C)cc1CN(CCCl)CCCl | inactive: 13.3%
CN(C)c1ccc(C(=O)NCC2(N3CCCCC3)CCCCC2)cc1 | inactive: 27.4%
CCN1CCC(Nc2cccc(F)c2)CC1 | inactive: 12.6%
Fc1ccccc1NC1CCN(Cc2ccccc2)CC1 | inactive: 10.9%
CCCOc1ccc(C)cc1CN(CCCl)CCCl | inactive: 32.4%
COc1cc(OC)cc(C(=O)NCC2(N3CCOCC3)CCCCC2)c1 | inactive: 3.06%
CCC(CO)(C(=O)OC1CN2CCC1CC2)c1ccccc1 (centres undefined) | inactive: 14.2%
CC(C)(C)OC(=O)N1CCC(Nc2ccccc2)CC1 | inactive: 10%
CCOc1ncccc1C(=O)NCC1(N2CCOCC2)CCCCC1 | inactive: 36.2%
O=C(OC1CN2CCC1CC2)C1c2ccccc2C=Cc2ccccc21 (centres undefined) | inactive: 6.4%
N/C(=N\O)c1c(N)no[n+]1[O-] | inactive: 8.22%
COc1ccc(C(=O)NCC2(N3CCOCC3)CCCCC2)cc1OC | inactive: 15.9%
c1ccc(CN2CCC(Nc3ccccc3)CC2)cc1 | inactive: -3.99%
N#Cc1ccc(C(=O)NCC2(N3CCCCC3)CCCCC2)cc1 | inactive: 23.7%
